{
  "source": "patent US10407441B2",
  "about": "“Compositions and methods for treating neoplasia, inflammatory disease and other disorders” (Dana-Farber Cancer Institute, Inc., priority 2010, dated 2019)",
  "tested_on": "NMC 797 and Per403 cells",
  "assay": "Differentiation and proliferation immunohistochemistry in NMC cells",
  "format": "cell-based, human",
  "data": [
    {"smiles": "Cc1sc2c(c1C)C(c1ccc(Cl)cc1)=NC(CC(=O)OC(C)(C)C)c1nnc(C)n1-2", "note": "(racemic) [JQ1, tert-Butyl 2-(4-(4-chlorophenyl)-2,3,9-trimethyl-6H-thieno[3,2-f][1,2,4]triazolo[4,3-a][1,4]diazepin-6-yl)acetate]", "values": [
      {"measurement": "time to differentiation", "result": "< 24", "unit": "h"}
    ]}
  ]
}
